Measured values reported in ChEMBL document CHEMBL1136895, “NO donors. Part 18: Bioactive metabolites of GTN and PETN--synthesis and vasorelaxant properties” (2009).

Assay: Vasorelaxant activity in pig pulmonary artery by organ bath experiment

Which EC50 does the source give for `CC(=O)OCC(COC(C)=O)O[N+](=O)[O-]` here?
Its EC50 is 1.23 µM.

With `O=[N+]([O-])OCC(O)CO` (centres undefined) as the compound, how does the EC50 read?
The EC50 was 56.3 µM.

For `O=[N+]([O-])OCC(CO)(CO)CO`, which EC50 is on record?
The EC50 was 72 µM.

For `O=[N+]([O-])OCC(CO)(CO)CO[N+](=O)[O-]`, which EC50 is on record?
The EC50 was 2.1 µM.
